Bounds are passed on as bounds.

The subject of one assay is HeLa. Briefly: Cytotoxicity against human HeLa cells assessed as reduction in cell viability incubated for 48 hrs by MTT assay. On the technique in general: Tetrazolium dyes change colour on reduction, which living cells bring about.
Another assay concerns SMMC-7721. Briefly: Cytotoxicity against human SMMC-7721 cells assessed as reduction in cell viability incubated for 48 hrs by MTT assay.
The test system of another assay is HepG2. Briefly: Cytotoxicity against human HepG2 cells assessed as reduction in cell viability incubated for 48 hrs by MTT assay.
The next assay deals with HL-60. Briefly: Cytotoxicity against human HL-60 cells assessed as reduction in cell viability incubated for 48 hrs by MTT assay.

For the molecule `Nc1cccc([As]2SCCS2)c1`, the IC50 is above 10 µM in the assay with HeLa, above 10 µM in the assay with SMMC-7721, above 10 µM in the assay on HepG2 and 2.93 µM in the assay with HL-60.
For the molecule `COc1ccc([As]2SCCS2)cc1NC(=O)CN`, the IC50 was above 10 µM in the assay on HeLa, above 10 µM in the assay with SMMC-7721, 5.13 µM in the assay with HepG2 and 1.62 µM in the assay on HL-60.
For `NCCCCCC(=O)Nc1ccc([As]2SCCS2)cc1`, the IC50 with HeLa is above 10 µM; in the assay with SMMC-7721, above 10 µM; in the assay on HepG2, above 10 µM; in the assay with HL-60, 4.54 µM.
`NCCCC(=O)Nc1ccc([As]2SCCCS2)cc1`: the IC50 with HeLa was above 10 µM; in the assay with SMMC-7721, above 10 µM; in the assay on HepG2, 7.04 µM; with HL-60, 1.71 µM.
In the case of `NCC(=O)Nc1ccccc1[As]1SCCCS1`, the IC50 is above 10 µM with HeLa, above 10 µM in the assay with SMMC-7721, 5.36 µM in the assay on HepG2 and 1.73 µM with HL-60.
Take `Nc1ccccc1[As]1SCCS1`: the IC50 was 5.48 µM in the assay on HeLa, 6.38 µM with SMMC-7721, 3.32 µM in the assay with HepG2 and 6.5 µM in the assay with HL-60.
The like results for `NCC(=O)Nc1cc([As]2SCCCS2)ccc1O` were, in that order, above 10 µM, 9.87 µM, 5.13 µM and 0.9 µM.
For the molecule `Nc1ccc([As]2SCCCS2)cc1`, the IC50 stood at 4.86 µM in the assay on HeLa, 2.27 µM in the assay with HepG2 and 0.81 µM in the assay with HL-60.
Turning to `O=[N+]([O-])c1cc([As]2SCCS2)ccc1O`, the IC50 with HeLa was above 10 µM; with SMMC-7721, above 10 µM; in the assay with HepG2, above 10 µM; in the assay with HL-60, 3.7 µM.
Turning to `NCCCCCC(=O)Nc1ccccc1[As]1SCCS1`, the IC50 is above 10 µM in the assay on HeLa, above 10 µM in the assay on SMMC-7721, above 10 µM in the assay on HepG2 and 4.9 µM in the assay on HL-60.
Regarding `NCC(=O)Nc1ccc([As]2SCCS2)cc1`, the IC50 in the assay on HeLa is above 10 µM; in the assay with SMMC-7721, above 10 µM; in the assay on HepG2, above 10 µM; in the assay on HL-60 it was 1.72 µM.
With `Nc1cc([As]2SCCS2)ccc1O`, the IC50 with HeLa was above 10 µM; in the assay on SMMC-7721, above 10 µM; in the assay with HepG2 it was above 10 µM; in the assay on HL-60, 4.85 µM.
In the case of `Nc1ccc([As]2SCCS2)cc1`, the IC50 in the assay on HeLa was above 10 µM; with SMMC-7721, above 10 µM; in the assay with HepG2 it was 5.08 µM; in the assay with HL-60 it was 2.26 µM.
`NCCCC(=O)Nc1ccccc1[As]1SCCS1`: the IC50 was above 10 µM in the assay on HeLa, above 10 µM with SMMC-7721, 7.27 µM in the assay with HepG2 and 3.84 µM in the assay on HL-60.
For the molecule `Nc1cccc([As]2SCCCS2)c1`, the IC50 in the assay with HeLa worked out at 5.67 µM; in the assay on SMMC-7721, 5.79 µM; with HepG2, 2.5 µM; in the assay on HL-60 it was 0.75 µM.
On to `Nc1cc([As]2SCCCS2)ccc1O`, for which the IC50 is 7.77 µM in the assay on HeLa, 6.74 µM with SMMC-7721, 3.74 µM with HepG2 and 1.64 µM in the assay on HL-60.
In the case of `NCC(=O)Nc1cccc([As]2SCCS2)c1`, the IC50 in the assay on HeLa was above 10 µM; in the assay with SMMC-7721, above 10 µM; in the assay with HepG2, above 10 µM; with HL-60 it was 2.49 µM.
For `NCCCC(=O)Nc1ccccc1[As]1SCCCS1`, the IC50 in the assay with HeLa was above 10 µM; with SMMC-7721, above 10 µM; with HepG2, above 10 µM; in the assay on HL-60, 1.84 µM.
With `NCCCC(=O)Nc1ccc([As]2SCCS2)cc1`, the IC50 was above 10 µM in the assay with HeLa, above 10 µM in the assay with SMMC-7721, above 10 µM in the assay on HepG2 and 2.4 µM in the assay with HL-60.
As for `NCCCC(=O)Nc1cccc([As]2SCCCS2)c1`, the IC50 is above 10 µM with HeLa, above 10 µM with SMMC-7721, above 10 µM with HepG2 and 1.79 µM in the assay on HL-60.
On to `O=[N+]([O-])c1cc([As]2SCCCS2)ccc1O`, for which the IC50 in the assay on HeLa is above 10 µM; in the assay on SMMC-7721, 6.9 µM; in the assay on HepG2, 2.58 µM; in the assay on HL-60, 0.67 µM.
Consider `NCCCC(=O)Nc1cccc([As]2SCCS2)c1`, for which the IC50 with HeLa is above 10 µM; in the assay on SMMC-7721, above 10 µM; with HepG2, above 10 µM; with HL-60, 3.7 µM.
As to `NCCCCCC(=O)Nc1cccc([As]2SCCS2)c1`, the IC50 was above 10 µM in the assay with HeLa, above 10 µM in the assay with SMMC-7721, above 10 µM in the assay on HepG2 and 4.95 µM in the assay on HL-60.
As for `NCC(=O)Nc1cccc([As]2SCCCS2)c1`, the IC50 worked out at 8.57 µM in the assay on HeLa, 7.76 µM in the assay with SMMC-7721, 5.02 µM with HepG2 and 0.96 µM in the assay on HL-60.
`NCC(=O)Nc1ccc([As]2SCCCS2)cc1`: the IC50 with HeLa came to 9.05 µM; in the assay with SMMC-7721, 9.25 µM; in the assay with HepG2 it was 5.79 µM; in the assay on HL-60, 1.13 µM.
Take `Nc1ccccc1[As]1SCCCS1`: the IC50 with HeLa was 3.14 µM; with SMMC-7721, 2.91 µM; in the assay with HepG2, 2.42 µM; with HL-60, 0.21 µM.
Regarding `NCC(=O)Nc1ccccc1[As]1SCCS1`, the half-inhibitory concentration (IC50) was above 10 µM with HeLa, above 10 µM with SMMC-7721, above 10 µM in the assay on HepG2 and 4.9 µM in the assay on HL-60.
For the molecule `NCC(=O)Nc1cc([As]2SCCS2)ccc1O`, the IC50 with HeLa was above 10 µM; with SMMC-7721, above 10 µM; with HepG2 it was above 10 µM; in the assay with HL-60 it was 3.46 µM.
Take `COc1ccc([As]2SCCCS2)cc1NC(=O)CN`: the IC50 in the assay on HeLa turned out to be 5.13 µM; with SMMC-7721 it was 4.81 µM; in the assay with HepG2, 2.47 µM; with HL-60, 0.86 µM.

By IC50 is commonly meant the concentration needed to halve the response being measured.

The values are drawn from ChEMBL document CHEMBL5236559 (J Med Chem, 2021).
